Biological target: Sphingosine kinase 1 (Homo sapiens, UniProt Q9NYA1)
Experiment: Inhibition of recombinant full length GST-tagged human SPHK1 expressed in baculovirus expression system incubated for 1 hr in presence of ATP by Alexa Fluor 647 tracer based Adapta assay relative to control
Settings: concentration not given here

Sequences of proteins named here, by UniProt entry; tags and fusion partners are left off.
UniProt Q9NYA1, whole entry: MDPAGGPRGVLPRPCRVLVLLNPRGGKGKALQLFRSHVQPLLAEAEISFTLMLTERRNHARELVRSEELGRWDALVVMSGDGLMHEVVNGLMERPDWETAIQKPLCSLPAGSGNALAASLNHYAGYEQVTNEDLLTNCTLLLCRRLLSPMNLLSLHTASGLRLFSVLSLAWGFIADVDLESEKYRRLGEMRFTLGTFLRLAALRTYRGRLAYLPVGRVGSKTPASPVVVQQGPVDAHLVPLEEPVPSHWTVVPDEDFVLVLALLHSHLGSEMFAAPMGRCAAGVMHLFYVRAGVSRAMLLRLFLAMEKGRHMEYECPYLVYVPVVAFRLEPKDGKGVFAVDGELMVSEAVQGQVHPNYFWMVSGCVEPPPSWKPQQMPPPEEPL

Compound | inhibition
O=C(N/N=C/c1cccc(O)c1)c1cc(-c2ccc3ccccc3c2)n[nH]1 | 10%
COc1ccc2ccccc2c1/C=N/NC(=O)c1cc(-c2ccc3ccccc3c2)[nH]n1 | 6%
O=C(N/N=C/c1ccccc1O)c1cc(-c2ccc3ccccc3c2)n[nH]1 | -6%
O=C(N/N=C/c1ccccc1)c1cc(-c2ccc3ccccc3c2)[nH]n1 | 10%
COc1ccccc1/C=N/NC(=O)c1cc(-c2ccc3ccccc3c2)[nH]n1 | 4%
COc1ccc(/C=N/NC(=O)c2cc(-c3ccc4ccccc4c3)[nH]n2)cc1 | -2%
O=C(N/N=C/C1CCCCC1)c1cc(-c2ccc3ccccc3c2)[nH]n1 | -9%
COc1ccc(/C=N/NC(=O)c2cc(-c3ccc4ccccc4c3)[nH]n2)cc1OC | 57%
O=C(N/N=C/c1cccc([N+](=O)[O-])c1)c1cc(-c2ccc3ccccc3c2)[nH]n1 | -2%
O=C(N/N=C/c1cccnc1)c1cc(-c2ccc3ccccc3c2)[nH]n1 | 18%
O=C(N/N=C/c1ccc(O)cc1)c1cc(-c2ccc3ccccc3c2)n[nH]1 | 17%
O=C(N/N=C/c1cccc2ccccc12)c1cc(-c2ccc3ccccc3c2)[nH]n1 | -7%
O=C(N/N=C/c1ccc2c(c1)OCCO2)c1cc(-c2ccc3ccccc3c2)[nH]n1 | 1%
COc1cccc(/C=N/NC(=O)c2cc(-c3ccc4ccccc4c3)[nH]n2)c1 | -3%

— ChEMBL document CHEMBL4808240, “Design, synthesis and analysis of novel sphingosine kinase-1 inhibitors to improve oral bioavailability” (Bioorg Med Chem Lett, 2021)
